Source: patent US11732249

Target: Man-6-P receptor on parental HeLa cells
Test: cell-based or functional assay

“acid α-glucosidase (GAA), myc-tagged (from UniProt P10253 57-952) (enzyme)” was tested, and the % uptake by HeLa cells, no Man-6-P; enzyme made with Endogenous PTase was 4.05%, the % uptake by HeLa cells, no Man-6-P; enzyme made with S1-S3 was 12.8% and the % uptake by HeLa cells, no Man-6-P; enzyme made with WT α/β was 3.31%. For the same substance, the % uptake by HeLa cells, with 5 mM Man-6-P; enzyme made with Endogenous PTase was 0.22%, the % uptake by HeLa cells, with 5 mM Man-6-P; enzyme made with S1-S3 was 2.99% and the % uptake by HeLa cells, with 5 mM Man-6-P; enzyme made with WT α/β was 0.44%. The % uptake, M6PR Dependent; enzyme made with Endogenous PTase was 3.8%, the % uptake, M6PR Dependent; enzyme made with S1-S3 was 8.8% and the % uptake, M6PR Dependent; enzyme made with WT α/β was 2.9%. For the same substance, the Fold Increase of M6PR dependent uptake over Endogenous PTase; enzyme made with S1-S3 was 2.6 X and the Fold Increase of M6PR dependent uptake over Endogenous PTase; enzyme made with WT α/β was 0.8 X.
